ChEMBL document CHEMBL1156503, “Long-acting kappa opioid antagonists disrupt receptor signaling and produce noncompetitive effects by activating c-Jun N-terminal kinase” (J Biol Chem, 2007)

Chains of the proteins cited; added tags and fusions are not shown. Lines headed by an entry give the natural chain unless they say otherwise; changes in a name come on top.
UniProt P45983: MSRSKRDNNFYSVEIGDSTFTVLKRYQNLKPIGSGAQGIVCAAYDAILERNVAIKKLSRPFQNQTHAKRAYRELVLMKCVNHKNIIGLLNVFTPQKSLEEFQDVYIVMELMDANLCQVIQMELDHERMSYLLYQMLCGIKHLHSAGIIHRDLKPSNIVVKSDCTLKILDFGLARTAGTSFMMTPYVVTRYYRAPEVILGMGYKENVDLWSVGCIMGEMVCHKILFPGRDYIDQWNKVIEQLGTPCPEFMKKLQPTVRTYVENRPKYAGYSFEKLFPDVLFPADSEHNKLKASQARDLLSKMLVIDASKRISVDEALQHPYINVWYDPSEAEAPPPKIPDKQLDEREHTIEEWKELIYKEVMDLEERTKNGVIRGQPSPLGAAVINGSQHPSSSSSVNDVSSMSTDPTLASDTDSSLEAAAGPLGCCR
UniProt P53779: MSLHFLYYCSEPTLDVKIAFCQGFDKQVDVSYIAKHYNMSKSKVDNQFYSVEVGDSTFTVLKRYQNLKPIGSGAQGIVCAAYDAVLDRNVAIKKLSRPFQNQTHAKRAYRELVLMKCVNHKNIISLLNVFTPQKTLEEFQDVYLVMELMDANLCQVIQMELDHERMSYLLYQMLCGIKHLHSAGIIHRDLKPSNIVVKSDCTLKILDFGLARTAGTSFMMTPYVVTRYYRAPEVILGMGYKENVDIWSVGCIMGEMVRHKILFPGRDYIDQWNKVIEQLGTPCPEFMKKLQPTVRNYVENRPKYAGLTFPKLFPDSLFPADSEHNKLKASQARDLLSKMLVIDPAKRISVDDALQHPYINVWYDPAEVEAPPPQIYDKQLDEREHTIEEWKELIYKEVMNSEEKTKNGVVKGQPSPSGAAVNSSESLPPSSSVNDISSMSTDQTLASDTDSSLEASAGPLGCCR
UniProt P45984: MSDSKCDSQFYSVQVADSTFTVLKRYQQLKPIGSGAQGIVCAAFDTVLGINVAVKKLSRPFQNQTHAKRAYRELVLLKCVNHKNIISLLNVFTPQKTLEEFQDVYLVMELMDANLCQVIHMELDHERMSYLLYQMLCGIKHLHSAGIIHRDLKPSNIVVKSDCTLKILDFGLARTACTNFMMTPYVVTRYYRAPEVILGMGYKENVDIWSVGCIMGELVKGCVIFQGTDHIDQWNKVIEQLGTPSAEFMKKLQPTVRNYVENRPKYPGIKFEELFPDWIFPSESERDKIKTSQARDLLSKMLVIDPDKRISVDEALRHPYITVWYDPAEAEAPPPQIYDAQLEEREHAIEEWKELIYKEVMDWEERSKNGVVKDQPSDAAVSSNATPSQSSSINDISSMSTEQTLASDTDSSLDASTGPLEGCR

Target: c-Jun N-terminal kinase, JNK (Homo sapiens, UniProt P45983+P53779+P45984)
Experiment: Increase of JNK phosphorylation in U50488 treated HEK293 cells expressing GFP tagged kappa opioid receptor

CN(C(=O)Cc1ccc(Cl)c(Cl)c1)C1CCCCC1N1CCCC1 (stereo unspecified)
EC50: 1240 nM
